Source: US20260265300A1, “TARGETING PRAC1 IN STEROID HORMONE DRIVEN CANCER” (Fred Hutchinson Cancer Center, priority 2023, published 2026)

The chains behind the UniProt entries cited, without tags or fusion partners. Residues count along the entry.
UniProt P10275, 669-900 limits assumed: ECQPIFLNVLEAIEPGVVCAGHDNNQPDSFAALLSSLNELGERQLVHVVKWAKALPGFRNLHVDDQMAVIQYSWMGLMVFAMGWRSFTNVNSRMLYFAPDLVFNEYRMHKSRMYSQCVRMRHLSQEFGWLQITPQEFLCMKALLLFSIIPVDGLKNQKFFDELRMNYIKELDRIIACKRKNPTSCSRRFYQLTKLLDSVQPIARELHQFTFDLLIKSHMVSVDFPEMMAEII

Target: T1, ligand binding domain (LBD) of the androgen receptor (Homo sapiens, UniProt P10275)
T1 construct: made in house; host or cells: bacteria
Assay: TR-FRET assay of AR-PRAC1 interaction
Conditions: His-tagged AR LBD with Terbium-labeled anti-His-tag antibodies, FITC-labeled peptide
Text: To identify small molecules that bind to the AR/PRAC1 interface, a scalable TR-FRET assay has been developed that allows the performance of the screens in a 384 well format. The assay combines the time-resolved (TR) measurement of fluorescence with fluorescence resonance energy transfer (FRET). The ligand binding domain (LBD) of the androgen receptor containing a His-tag is expressed in bacteria. Recombinant His-tagged AR is further labeled with Terbium-labeled anti-His-tag antibodies and incubated with FITC-labeled PRACA1 peptides. The binding (i.e., proximity of AR and PRAC1) generates the FRET signal in this assay.
This is the first saleable in vitro assay to determine the interaction of AR and PRAC1. It can be used to test the affinity of modified PRAC1 mimetic peptides and represents a platform technology for screening small molecules that interfere with the AR-PRAC1 interaction.

PPRVLFSLIRKHLL [SEQ ID NO:9] was tested, and the FRET signal was “dose dependent increase in FRET signal”.
